Measured values taken from doi:10.1101/2023.10.01.560353v1 (bioRxiv, 2023).

These compounds were tested on 11 clinically relevant bacterial pathogens (assay: MIC over the panel of pathogens). Details: Table S17; lowest MIC over the strains tested.
Type: cell-based

Structure (SMILES)	MIC (lowest MIC value obtained in the antimicrobial activity assays) [mM]
CC[C@H](C)[C@H](NC(=O)[C@@H](NC(=O)[C@H](CCCCN)NC(=O)[C@H](CCCCN)NC(=O)[C@H](CCCCN)NC(=O)[C@H](CCCCN)NC(=O)[C@H](CC(C)C)NC(=O)CNC(=O)[C@H](CCC(N)=O)NC(=O)[C@@H](NC(=O)[C@H](Cc1ccc(O)cc1)NC(=O)[C@H](CCCNC(=N)N)NC(=O)[C@@H](NC(=O)[C@H](CC(C)C)NC(=O)[C@H](CC(N)=O)NC(=O)[C@H](CCCNC(=N)N)NC(=O)[C@H](C)NC(=O)[C@H](CCSC)NC(=O)[C@@H](N)CCCNC(=N)N)C(C)C)C(C)C)C(C)C)C(=O)O [Hydrodamin-2]	8000 (≈ 18400 mg/mL)
CC[C@H](C)[C@H](NC(=O)[C@H](CC(N)=O)NC(=O)[C@H](CCCCN)NC(=O)[C@H](CCCNC(=N)N)NC(=O)[C@H](Cc1ccccc1)NC(=O)[C@@H](NC(=O)[C@H](CC(C)C)NC(=O)[C@H](CCCNC(=N)N)NC(=O)[C@H](CCCNC(=N)N)NC(=O)CNC(=O)[C@H](CCCNC(=N)N)NC(=O)[C@H](C)NC(=O)[C@H](CCCNC(=N)N)NC(=O)[C@@H](NC(=O)[C@H](CC(C)C)NC(=O)[C@H](CO)NC(=O)[C@H](Cc1ccc(O)cc1)NC(=O)[C@@H](NC(=O)[C@H](CCCNC(=N)N)NC(=O)[C@H](CS)NC(=O)[C@H](Cc1ccc(O)cc1)NC(=O)[C@@H](N)CC(C)C)[C@@H](C)CC)C(C)C)[C@@H](C)O)C(=O)N[C@@H](CO)C(=O)N[C@@H](CCCCN)C(=O)O [Hydrodamin-1]	4000 (≈ 11900 mg/mL)
CC[C@H](C)[C@H](NC(=O)CNC(=O)[C@@H](NC(=O)[C@@H]1CCCN1C(=O)[C@@H](NC(=O)[C@@H](NC(=O)[C@@H](NC(=O)[C@@H](NC(=O)[C@H](CCCCN)NC(=O)[C@H](CCCCN)NC(=O)[C@H](CCCCN)NC(=O)[C@H](CCCCN)NC(=O)[C@H](CC(C)C)NC(=O)CNC(=O)[C@H](CCC(N)=O)NC(=O)[C@@H](NC(=O)[C@H](Cc1ccc(O)cc1)NC(=O)[C@H](CCCNC(=N)N)NC(=O)[C@@H](NC(=O)[C@H](CC(C)C)NC(=O)[C@H](CC(N)=O)NC(=O)[C@@H](N)CCCNC(=N)N)C(C)C)C(C)C)C(C)C)[C@@H](C)CC)C(C)C)[C@@H](C)CC)C(C)C)C(=O)NCC(=O)N1CCC[C@H]1C(=O)N[C@@H](Cc1c[nH]cn1)C(=O)N[C@@H](C)C(=O)N[C@@H](CC(N)=O)C(=O)N[C@H](C(=O)N[C@@H](CCCCN)C(=O)O)[C@@H](C)CC [Hydrodamin-3]	16000 (≈ 51800 mg/mL)
CC(C)C[C@H](NC(=O)CNC(=O)[C@H](CCCNC(=N)N)NC(=O)[C@H](CCCCN)NC(=O)[C@@H](N)CCCNC(=N)N)C(=O)N[C@@H](CCCCN)C(=O)N[C@@H](CC(C)C)C(=O)N[C@@H](C)C(=O)N[C@H](C(=O)N[C@@H](C)C(=O)N[C@@H](CC(C)C)C(=O)N[C@@H](CO)C(=O)N[C@@H](CC(C)C)C(=O)N[C@@H](CC(N)=O)C(=O)N[C@@H](CC(N)=O)C(=O)N[C@@H](CCCCN)C(=O)N[C@@H](Cc1ccccc1)C(=O)N[C@H](C(=O)O)C(C)C)[C@@H](C)O [Mylodonin-4]	32000 (≈ 64900 mg/mL)
CC[C@H](C)[C@H](N)C(=O)N[C@@H](Cc1ccccc1)C(=O)N[C@@H](CO)C(=O)N[C@@H](CC(C)C)C(=O)N[C@@H](Cc1c[nH]cn1)C(=O)N[C@@H](CC(C)C)C(=O)N[C@@H](C)C(=O)NCC(=O)N[C@H](C(=O)N[C@@H](CO)C(=O)N[C@@H](CO)C(=O)N[C@H](C(=O)N[C@@H](CC(C)C)C(=O)O)[C@@H](C)CC)[C@@H](C)CC [Ursusin-1]	64000 (≈ 87700 mg/mL)

These compounds were tested on A. baumannii ATCC 19606 (assay: MIC, broth microdilution). Details: broth microdilution in LB, 20 h at 37 °C, OD600; mean of three replicates.
Type: cell-based, Acinetobacter baumannii

Structure (SMILES)	Minimal Inhibitory Concentration: A. baumannii ATCC19606 [µmol/L]
CC[C@H](C)[C@H](NC(=O)[C@H](CC(N)=O)NC(=O)[C@H](CCCCN)NC(=O)[C@H](CCCNC(=N)N)NC(=O)[C@H](Cc1ccccc1)NC(=O)[C@@H](NC(=O)[C@H](CC(C)C)NC(=O)[C@H](CCCNC(=N)N)NC(=O)[C@H](CCCNC(=N)N)NC(=O)CNC(=O)[C@H](CCCNC(=N)N)NC(=O)[C@H](C)NC(=O)[C@H](CCCNC(=N)N)NC(=O)[C@@H](NC(=O)[C@H](CC(C)C)NC(=O)[C@H](CO)NC(=O)[C@H](Cc1ccc(O)cc1)NC(=O)[C@@H](NC(=O)[C@H](CCCNC(=N)N)NC(=O)[C@H](CS)NC(=O)[C@H](Cc1ccc(O)cc1)NC(=O)[C@@H](N)CC(C)C)[C@@H](C)CC)C(C)C)[C@@H](C)O)C(=O)N[C@@H](CO)C(=O)N[C@@H](CCCCN)C(=O)O [Hydrodamin-1]	4

Values after ≈ are worked out from the molar mass of the structure shown.
